In patent US4866044A, “Solubilized composition of poorly-soluble pharmaceutical product” (Takeda Chemical Industries, Ltd., priority 1985, dated 1989) one finds redissolubility data, which are given here for 3 substances.

For this data set the following is noted: pH 6.
As for N--(2-mercaptopropionyl)-glycine, the redissolubility result is listed as “O (key: O: dissolved within one minute; Δ: dissolved within one to three minutes)”.

As for thiourea, the redissolubility result is “O (key: O: dissolved within one minute; Δ: dissolved within one to three minutes)”.

Take β-alanine: the redissolubility entry is on record as “O (key: O: dissolved within one minute; Δ: dissolved within one to three minutes)”.
